From patent US20040176294A1 (published 2004)

By UniProt entry, the sequences of proteins in these tests, tags left out. Residues count along the entry.
UniProt P47750, 22-764: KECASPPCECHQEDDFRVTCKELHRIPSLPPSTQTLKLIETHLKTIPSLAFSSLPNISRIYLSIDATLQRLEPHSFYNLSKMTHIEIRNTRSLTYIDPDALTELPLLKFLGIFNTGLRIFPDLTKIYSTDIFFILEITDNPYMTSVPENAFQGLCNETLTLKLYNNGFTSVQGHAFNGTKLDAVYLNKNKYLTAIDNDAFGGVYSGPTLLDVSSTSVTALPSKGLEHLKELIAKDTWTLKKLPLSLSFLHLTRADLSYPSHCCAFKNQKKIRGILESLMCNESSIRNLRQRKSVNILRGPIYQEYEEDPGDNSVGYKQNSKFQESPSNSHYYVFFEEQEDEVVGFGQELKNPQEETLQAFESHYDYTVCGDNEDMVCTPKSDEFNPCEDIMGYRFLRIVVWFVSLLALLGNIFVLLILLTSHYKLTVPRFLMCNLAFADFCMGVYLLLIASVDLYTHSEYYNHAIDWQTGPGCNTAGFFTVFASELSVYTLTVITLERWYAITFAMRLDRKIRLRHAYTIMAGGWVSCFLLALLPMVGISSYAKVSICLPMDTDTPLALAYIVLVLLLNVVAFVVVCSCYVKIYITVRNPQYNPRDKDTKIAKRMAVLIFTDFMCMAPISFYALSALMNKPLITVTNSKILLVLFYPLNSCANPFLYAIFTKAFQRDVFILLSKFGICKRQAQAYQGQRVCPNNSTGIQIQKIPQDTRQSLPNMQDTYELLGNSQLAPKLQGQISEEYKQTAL
UniProt P16473, 21-764: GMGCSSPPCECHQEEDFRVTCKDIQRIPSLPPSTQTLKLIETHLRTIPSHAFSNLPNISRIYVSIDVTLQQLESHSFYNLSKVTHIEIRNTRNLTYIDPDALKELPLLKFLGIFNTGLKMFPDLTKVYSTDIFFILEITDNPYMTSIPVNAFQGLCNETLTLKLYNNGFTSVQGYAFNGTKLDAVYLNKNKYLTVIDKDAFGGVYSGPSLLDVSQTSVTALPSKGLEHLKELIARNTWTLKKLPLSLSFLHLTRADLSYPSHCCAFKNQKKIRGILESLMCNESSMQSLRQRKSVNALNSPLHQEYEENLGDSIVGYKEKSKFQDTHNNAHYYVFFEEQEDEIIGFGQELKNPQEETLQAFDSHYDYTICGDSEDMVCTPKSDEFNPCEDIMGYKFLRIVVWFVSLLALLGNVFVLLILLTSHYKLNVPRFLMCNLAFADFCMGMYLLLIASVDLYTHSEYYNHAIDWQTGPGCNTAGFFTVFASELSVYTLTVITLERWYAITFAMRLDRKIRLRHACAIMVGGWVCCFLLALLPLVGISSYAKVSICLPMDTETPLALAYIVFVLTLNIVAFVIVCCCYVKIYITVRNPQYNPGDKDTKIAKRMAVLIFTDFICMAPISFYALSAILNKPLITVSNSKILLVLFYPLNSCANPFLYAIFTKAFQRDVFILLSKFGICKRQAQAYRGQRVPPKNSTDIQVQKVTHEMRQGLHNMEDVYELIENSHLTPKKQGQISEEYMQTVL

Tests used:
[1] = target: TSH receptor on differentiated murine 3T3 L1 adipocytes (murine, UniProt P47750 22-764); assay: cell-based or functional assay
[2] = target: TSH receptor on primary human adipocytes (human, UniProt P16473 21-764); assay: cell-based or functional assay

B1: thyroid-stimulating hormone (TSH) (ligand)
chain 1: not shown
chain 2: FCIPTEYTMHIERRECAYCLTINTTICAGYCMTRDINGKLFLPKYALSQDVCTYRDFIYRTVEIPGCPLHVAPYFSYPVALSCKCGKCNTDYSDCIHEAIKTNYCTKPQKSY
induction of luciferase expression (CRE-driven luciferase reporter, differentiated 3T3 L1 adipocytes) [1]: 24 fold
induction of the reporter gene (CRE-driven luciferase reporter, primary human adipocytes) [2]: 20 fold
